Measured values reported in ChEMBL document CHEMBL4808148, “HDAC6 screening dataset using tau-based substrate in an enzymatic assay yields selective inhibitors and activators” (2021).
Shown are results outside the selection of strong results, which stands elsewhere.

biological target: T1, Protein deacetylase HDAC6 (Homo sapiens) (UniProt Q9UBN7); conditions: at 10 µM
T1 sequence (whole entry): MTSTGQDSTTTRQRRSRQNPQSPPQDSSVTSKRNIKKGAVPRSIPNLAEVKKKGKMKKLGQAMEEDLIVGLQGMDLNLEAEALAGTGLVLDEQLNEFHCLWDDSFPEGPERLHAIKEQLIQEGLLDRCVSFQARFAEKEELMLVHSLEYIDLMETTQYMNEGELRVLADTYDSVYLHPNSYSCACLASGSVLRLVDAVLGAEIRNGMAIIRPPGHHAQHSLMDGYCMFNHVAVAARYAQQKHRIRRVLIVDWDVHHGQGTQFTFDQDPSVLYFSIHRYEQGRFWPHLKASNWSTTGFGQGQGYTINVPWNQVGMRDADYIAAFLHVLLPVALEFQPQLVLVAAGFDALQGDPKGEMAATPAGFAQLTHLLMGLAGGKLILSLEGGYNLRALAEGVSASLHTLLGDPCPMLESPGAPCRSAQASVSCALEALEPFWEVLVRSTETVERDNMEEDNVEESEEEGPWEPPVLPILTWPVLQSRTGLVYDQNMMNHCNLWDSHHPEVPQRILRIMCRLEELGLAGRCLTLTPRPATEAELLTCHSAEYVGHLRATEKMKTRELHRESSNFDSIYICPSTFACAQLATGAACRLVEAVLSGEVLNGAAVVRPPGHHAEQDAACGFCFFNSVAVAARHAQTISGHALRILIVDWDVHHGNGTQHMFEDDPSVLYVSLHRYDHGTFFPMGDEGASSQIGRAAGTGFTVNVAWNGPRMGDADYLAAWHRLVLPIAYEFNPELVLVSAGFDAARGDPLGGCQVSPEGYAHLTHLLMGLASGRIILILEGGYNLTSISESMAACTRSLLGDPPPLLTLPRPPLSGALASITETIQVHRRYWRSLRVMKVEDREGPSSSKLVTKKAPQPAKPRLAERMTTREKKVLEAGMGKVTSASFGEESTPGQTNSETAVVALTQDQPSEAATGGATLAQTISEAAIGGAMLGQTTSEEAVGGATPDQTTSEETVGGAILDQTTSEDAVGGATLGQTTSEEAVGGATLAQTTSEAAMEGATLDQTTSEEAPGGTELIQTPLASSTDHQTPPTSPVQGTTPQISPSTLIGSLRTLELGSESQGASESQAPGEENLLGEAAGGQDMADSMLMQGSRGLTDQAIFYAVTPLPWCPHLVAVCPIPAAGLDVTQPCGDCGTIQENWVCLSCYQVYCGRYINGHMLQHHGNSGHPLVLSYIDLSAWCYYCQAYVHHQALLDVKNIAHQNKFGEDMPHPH

| Structure (SMILES) | inhibition |
| --- | --- |
| COc1ccc(CC(C)NCC(O)c2ccc(O)c(NC=O)c2)cc1 (stereo unspecified) | -7.47% |
